Data on 58 molecules can be found in PubChem BioAssay AID504577 (NMMLSC, 2011).

This is a selection; strong and weak results do not stand in their true shares. Some salts or complexes appear as unconnected parts, following the source record. Active and inactive are the calls of the source. No stated cut-off is given here; in the data, active means response mostly above about 7.3% (no sharp cut-off); inactive means mostly below about 5.4%.

The nature of the assay: regulators of yeast V-ATPase proton pumping, primary screen, pHLuorin cytosolic pH fluorescence (AID 504577). Further: actives read high. To be noted: S. cerevisiae, at 10 µM, stronger effect = higher value.
Turning to `CP(=O)(OCCOc1ccccc1)OCCOc1ccccc1`, the response is inactive: 1.3%.

Consider `CP(=O)(Nc1ccc(Cl)cc1Cl)Oc1ccccc1` (stereo not drawn), for which the response is inactive: -0.37%.

On to `CCCCCCCCCCCCCCCC1C[N+](C)(C)CCOP(C)(=O)O1` (stereo not drawn), for which the response was inactive: -3.49%. Under `COc1ccc(OP(C)(=O)Nc2ccccc2Br)cc1` (stereo not drawn) stands inactive: 1.56%. `COc1ccccc1OP(C)(=O)Nc1ccc(C)c(C)c1` (stereo not drawn): the response is inactive: 1.19%. Under `Cc1cc(C)cc(OP(C)(=O)Nc2cccc(C(F)(F)F)c2)c1` (stereo not drawn) stands inactive: -0.81%; under `O=C1C(O)=C([N+](=O)[O-])C(=O)C(O)=C1[N+](=O)[O-]`, inactive: -3.84%. Under `CCc1ccc(OP(C)(=O)O)cc1` stands inactive: 1.72%. Under `COc1ccccc1OP(C)(=O)Nc1ccc(C)cc1C` (stereo not drawn) stands inactive: 1.84%; under `CP(=O)(Nc1ccccn1)Oc1ccccc1` (stereo not drawn), inactive: -5.9%.

As to `O=[N+]([O-])c1cc([N+](=O)[O-])c(Nc2ccccn2)c([N+](=O)[O-])c1`, the response is inactive: -2.25%.

For the molecule `Cc1c(NP(C)(=O)Oc2ccc(C(C)C)cc2)c(=O)n(-c2ccccc2)n1C` (stereo not drawn), the response was inactive: 1.22%. Take `CN(C)CCOC(=O)C(O)(c1ccccc1)C1CCCC1` (stereo not drawn): the response was inactive: -0.1%. Under `COc1ccc(OP(C)(=O)Nc2ccccn2)cc1` (stereo not drawn) stands inactive: 0.97%.

Consider `COc1ccccc1OP(C)(=O)Nc1ccc(Br)cc1` (stereo not drawn), for which the response was inactive: 0.22%. Under `CN(C)C(=O)c1c([N+](=O)[O-])cc([N+](=O)[O-])cc1[N+](=O)[O-]` stands inactive: -5.43%; under `CP(=O)(Nc1ccc(Cl)cc1)Oc1ccc(F)cc1` (stereo not drawn), inactive: 1.71%.

As to `CC(C)(C)c1ccc(OP(C)(=O)O)cc1`, the response is inactive: 5.04%.

Turning to `COc1ccccc1OP(C)(=O)Nc1ccccc1Br` (stereo not drawn), the response is inactive: 6.66%. For the molecule `CCc1ccc(OP(C)(=O)Nc2cccnc2)cc1` (stereo not drawn), the response is inactive: 5.45%. Under `CP(=O)(Oc1ccccc1)N1CCOC1=O` (stereo not drawn) stands inactive: 3.82%; under `O=C(OCCCN1CCCC1)C(O)(c1ccccc1)C1CCCCC1` (stereo not drawn), inactive: -2.67%; under `COc1ccccc1OP(C)(=O)Nc1c(C)n(C)n(-c2ccccc2)c1=O` (stereo not drawn), inactive: -0.28%.

In the case of `COc1ccc(OP(C)(=O)Nc2ccc(Br)cc2)cc1` (stereo not drawn), the response is inactive: 0.75%. Under `CCN(CC)CC(O)COC(=O)C(O)(c1ccccc1)C1CCCCC1` (stereo not drawn) stands inactive: -1.97%. Under `CP(=O)(OC12CC3CC(CC(C3)C1)C2)OC12CC3CC(CC(C3)C1)C2` stands inactive: -0.12%.

Turning to `CCOC(=O)c1ccc(NP(C)(=O)Oc2ccc(Cl)cc2)cc1` (stereo not drawn), the response was inactive: 1.21%. For the molecule `Nc1ccc2c(ccc3cccnc32)n1.O=[N+]([O-])c1cc([N+](=O)[O-])c(O)c([N+](=O)[O-])c1`, the response was inactive: -1.57%.

Take `Cc1c(C(c2ccc3c(c2)OCO3)c2c(C)n(C)n(-c3ccccc3)c2=O)c(=O)n(-c2ccccc2)n1C.O=[N+]([O-])c1cc([N+](=O)[O-])c(O)c([N+](=O)[O-])c1`: the response was inactive: -0.08%.

In the case of `O=[N+]([O-])c1cc([N+](=O)[O-])c(NCC2CCS(=O)(=O)C2)c([N+](=O)[O-])c1` (stereo not drawn), the response was inactive: -2.67%. Under `Cc1cc(-c2cccc3ccccc23)c(C)cn1.O=[N+]([O-])c1cc([N+](=O)[O-])c(O)c([N+](=O)[O-])c1` stands inactive: 0.07%; under `O=[N+]([O-])c1ccc(OP2(=O)COCCO2)cc1` (stereo not drawn), inactive: 7.54%.

On to `COc1ccc(NP(C)(=O)Oc2ccccc2OC)cc1` (stereo not drawn), for which the response is inactive: 8.55%. Under `COc1ccc(OP(C)(=O)Nc2cccc(Br)c2)cc1` (stereo not drawn) stands inactive: -0.01%; under `Cc1ccccc1NP(C)(=O)Nc1ccccc1C`, inactive: 0.84%. Under `CP(=O)(Nc1ccc2c(c1)OCCO2)Oc1ccccc1` (stereo not drawn) stands inactive: -4.81%; under `CCOP(C)(=S)SCC(=O)NC(C)(CC)C(=O)O` (stereo not drawn), inactive: 1.08%; under `CP(=O)(Nc1ccc(SC(F)(F)F)cc1)Oc1ccc(F)cc1` (stereo not drawn), inactive: -0.89%. Take `COc1ccc2c(c1O)-c1c(O)c(OC)cc3c1[C@H](C2)[N+](C)(C)CC3.O=[N+]([O-])c1cc([N+](=O)[O-])c([O-])c([N+](=O)[O-])c1[O-]`: the response is inactive: -5.68%. Under `O=C(OCCN1CCN(CCOCc2ccccc2)CC1)C(O)(c1ccccc1)c1ccccc1` stands inactive: 0.95%; under `O=C(OC1CN2CCC1CC2)c1ccc([N+](=O)[O-])cc1` (stereo not drawn), inactive: 0.96%; under `CC(C)c1ccc(OP(C)(=O)Nc2ccc(SC(F)(F)F)cc2)cc1` (stereo not drawn), inactive: -4.26%.

In the case of `CP(=O)(Nc1ccccc1F)Oc1ccccc1` (stereo not drawn), the response was inactive: 2.23%.

On to `O=[N+]([O-])c1cc([N+](=O)[O-])c(Nc2ccc(Cl)cc2)c([N+](=O)[O-])c1`, for which the response was inactive: -19%.

Turning to `O=[N+]([O-])c1cc([N+](=O)[O-])c(OC2CCCCC2O)c([N+](=O)[O-])c1` (stereo not drawn), the response is inactive: -1.92%. Under `CCCCCOc1ccc(NP(C)(=O)Oc2ccc(Cl)cc2Cl)cc1` (stereo not drawn) stands inactive: 2.86%; under `CP(=O)(Nc1ccccc1)Oc1ccc(F)cc1` (stereo not drawn), inactive: 1.69%. Under `CCN(CC)CCCOC(=O)C(O)(c1ccccc1)C1CCCCC1` (stereo not drawn) stands inactive: -1.12%; under `Cc1c([N+](=O)[O-])cc([N+](=O)[O-])c(Br)c1[N+](=O)[O-]`, inactive: 5.5%; under `COc1ccc(OP(C)(=O)Nc2ccc(SC(F)(F)F)cc2)cc1` (stereo not drawn), inactive: 0.13%. As to `CCOC(=O)c1ccc(NP(C)(=O)Oc2ccc(F)cc2)cc1` (stereo not drawn), the response is inactive: 3.46%. For the molecule `CC1=NCCc2c1[nH]c1ccccc21.O=[N+]([O-])c1cc([N+](=O)[O-])c(O)c([N+](=O)[O-])c1`, the response was inactive: -0.75%.

Consider `O=C(O)c1cccc(Nc2c([N+](=O)[O-])cc([N+](=O)[O-])cc2[N+](=O)[O-])c1`, for which the response was inactive: -0.51%. Regarding `CP(=O)(Nc1cccc(Br)c1)Oc1ccccc1` (stereo not drawn), the response is inactive: -2.19%. Under `Cc1cc(C)cc(OP(C)(=O)Nc2ccccn2)c1` (stereo not drawn) stands inactive: 2.76%; under `Cc1ccc(C)c(NP(C)(=O)Oc2ccccc2)c1` (stereo not drawn), inactive: 3.97%. Under `Cc1cc(C)cc(OP(C)(=O)Nc2ccc(C)cc2C)c1` (stereo not drawn) stands inactive: -4.82%. Under `CCOC(=O)c1ccc(NP(C)(=O)Oc2cc(C)cc(C)c2)cc1` (stereo not drawn) stands inactive: 1.41%.
